The species entered for assay [1] is Homo sapiens. The assay is described as follows: Selectivity index, ratio of IC50 for N-terminal FLAG-tagged human recombinant mTOR (1362 to end residues) to IC50 for His-tagged human full length PI3Kalpha coexpressed with p85 alpha in baculovirus expression system.
For assay [2], the species on record is Homo sapiens. As to the kind of experiment: Selectivity index, ratio of IC50 for GST-tagged human recombinant PI3Kgamma catalytic domain (468 to 1203 residues) expressed in insect cells to IC50 for His-tagged human full length PI3Kalpha coexpressed with p85 alpha in baculovirus expression system.
The species named for assay [3] is Homo sapiens. The assay is described as follows: Selectivity index, ratio of IC50 for N-terminal His6-tagged human recombinant full length PI3Kbeta co-expressed with human recombinant full length P85alpha in baculovirus infected Sf21 cells to IC50 for His-tagged human full length PI3Kalpha coexpressed with p85 alpha in baculovirus expression system.
The species named for assay [4] is Homo sapiens. As to the kind of experiment: Selectivity index, ratio of IC50 for N-terminal His6-tagged human recombinant full length PI3Kdelta co-expressed with human recombinant full length P85alpha in baculovirus infected Sf21 cells to IC50 for His-tagged human full length PI3Kalpha coexpressed with p85 alpha in baculovirus expression system.

These results are taken from ChEMBL document CHEMBL4765307, “Design, synthesis and biological activity of novel 2,3,4,5-tetra-substituted thiophene derivatives as PI3Kα inhibitors with potent antitumor activity” (Eur J Med Chem, 2020).

Take `N#Cc1c(N2CCOCC2)sc(-c2nc[nH]n2)c1-c1ccc(NC(=O)Nc2ccccc2Cl)cc1`: the Ratio IC50 was determined as 196 in the assay listed under Homo sapiens [1], 28 in the assay listed under Homo sapiens [2], 12 in the assay filed under Homo sapiens [3] and 30 in the assay filed under Homo sapiens [4].
